{"source": "paper PMC6585649", "about": "(Clinical Pharmacology in Drug Development, 2018)", "assay": "Multiple-dose", "format": "in vivo, human (healthy subjects)", "note": "Entries after “also recorded” stand apart in the source; their conditions may differ.", "data": [{"smiles": "CC[C@@H]1CN(C(=O)NCC(F)(F)F)C[C@@H]1c1cnc2cnc3[nH]ccc3n12", "note": "[Upadacitinib]", "values": [{"measurement": "dose proportionality of exposure", "setting": "15 to 30 mg once-daily ER regimens", "result": "dose‐proportional"}, {"measurement": "accumulation in plasma", "setting": "multiple once-daily dosing, ER formulation", "result": "lack of accumulation; also recorded: no accumulation"}]}]}
